Assays:
Mus musculus [1] = assay: In vivo analgesic activity for heat stimulus modality using tail flick test in female CF-1 mice administered subcutaneously
Mus musculus [2] = assay: In vivo analgesic activity for chemical irritation modality using HCl writhing test in female CF-1 mice administered subcutaneously
[3] = biological target: Kappa-type opioid receptor (Mus musculus, UniProt P33534); assay: Binding affinity against opioid receptor kappa using [3H]U-69,593 as a radioligand
Mu-type opioid receptor = Mu-type opioid receptor (Mus musculus, UniProt P42866); assay: Binding affinity against opioid receptor mu using [3H]etorphine as a radioligand
Mus musculus [4] = assay: In vivo analgesic activity for pressure stimulus modality using tail pinch test in female CF-1 mice administered subcutaneously

Chains of the proteins cited; added tags and fusions are not shown.
UniProt P33534, whole entry: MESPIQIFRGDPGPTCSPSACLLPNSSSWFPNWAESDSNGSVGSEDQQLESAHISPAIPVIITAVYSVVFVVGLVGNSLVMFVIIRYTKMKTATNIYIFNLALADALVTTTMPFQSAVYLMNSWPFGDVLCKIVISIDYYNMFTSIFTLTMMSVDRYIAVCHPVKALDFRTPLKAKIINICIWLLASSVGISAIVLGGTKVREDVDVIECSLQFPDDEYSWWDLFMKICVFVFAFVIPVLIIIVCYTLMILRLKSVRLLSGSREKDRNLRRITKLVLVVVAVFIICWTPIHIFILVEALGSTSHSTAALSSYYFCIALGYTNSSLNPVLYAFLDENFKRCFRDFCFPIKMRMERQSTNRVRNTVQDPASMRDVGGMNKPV
UniProt P42866, whole entry: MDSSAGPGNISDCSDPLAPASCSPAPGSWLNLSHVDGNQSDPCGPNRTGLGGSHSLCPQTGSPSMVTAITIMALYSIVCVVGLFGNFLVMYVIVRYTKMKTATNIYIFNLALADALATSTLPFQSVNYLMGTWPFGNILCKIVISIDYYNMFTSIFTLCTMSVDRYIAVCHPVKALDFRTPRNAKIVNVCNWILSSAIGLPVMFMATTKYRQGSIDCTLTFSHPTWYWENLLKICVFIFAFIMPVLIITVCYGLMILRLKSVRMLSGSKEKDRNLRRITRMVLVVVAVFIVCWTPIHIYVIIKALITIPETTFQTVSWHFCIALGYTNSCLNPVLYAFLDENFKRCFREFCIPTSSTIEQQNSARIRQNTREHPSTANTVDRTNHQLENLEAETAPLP

## CN(C(=O)c1ccc(Cl)c(Cl)c1)[C@@H]1c2ccccc2CC[C@H]1N1CCCC1
Mus musculus [1]
  ED50: > 100 mg/kg
Mus musculus [2]
  ED50: > 100 mg/kg
[3]
  IC50: 0.368 µM
Mu-type opioid receptor
  Ki: > 1 µM
Mus musculus [4]
  ED50: > 100 mg/kg

## CN(C)[C@@H]1CCc2ccccc2[C@H]1N(C)C(=O)c1ccc(Cl)c(Cl)c1
Mus musculus [1]
  ED50: > 100 mg/kg
Mus musculus [2]
  ED50: > 100 mg/kg
[3]
  IC50: 2.2 µM
Mu-type opioid receptor
  Ki: 0.505 µM
Mus musculus [4]
  ED50: > 100 mg/kg

## CN(C)[C@@H]1Cc2ccccc2C[C@H]1N(C)C(=O)c1ccc(Cl)c(Cl)c1
[3]
  IC50: 0.0555 µM

## CN(C(=O)c1ccc(Cl)c(Cl)c1)[C@@H]1Cc2cc3ccccc3cc2C[C@H]1N1CCCC1
Mus musculus [1]
  ED50: > 100 mg/kg
Mus musculus [2]
  ED50: 71 mg/kg
[3]
  IC50: 0.0849 µM
Mu-type opioid receptor
  Ki: > 1 µM
Mus musculus [4]
  ED50: > 100 mg/kg

Reference: ChEMBL document CHEMBL1125895, “Naphtho and benzo analogues of the kappa opioid agonist trans-(+/-)-3,4-dichloro-N-methyl-N-[2-(1-pyrrolidinyl)cyclohexyl] benzeneacetamide” (1991)
